In one assay the target is human μ-receptors (Homo sapiens (Human), UniProt P35372). As to the kind of experiment: In vitro mu-opioid receptor [35S]GTPγS functional assay.
Assay [1] addresses human opioid receptor-like (ORL-1) (Homo sapiens (Human), UniProt P41146). As to the kind of experiment: ORL-1 receptor [35S]GTPγS functional binding assay. It is filed as biochemical. The conditions noted are these: ORL-1 GTPγS.

Amino acid sequences for entries named in this document (tags omitted).
UniProt P35372, whole entry: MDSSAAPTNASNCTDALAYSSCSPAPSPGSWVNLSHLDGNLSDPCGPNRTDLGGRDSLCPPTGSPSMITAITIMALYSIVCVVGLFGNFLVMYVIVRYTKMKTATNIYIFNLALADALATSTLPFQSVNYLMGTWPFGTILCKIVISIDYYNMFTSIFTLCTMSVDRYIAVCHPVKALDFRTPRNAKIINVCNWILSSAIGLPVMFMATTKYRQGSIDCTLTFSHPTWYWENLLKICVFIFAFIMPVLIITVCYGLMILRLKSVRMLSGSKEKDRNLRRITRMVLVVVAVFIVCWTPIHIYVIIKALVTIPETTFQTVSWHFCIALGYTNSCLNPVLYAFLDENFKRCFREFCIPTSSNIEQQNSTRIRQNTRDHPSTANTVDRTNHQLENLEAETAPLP
UniProt P41146, whole entry: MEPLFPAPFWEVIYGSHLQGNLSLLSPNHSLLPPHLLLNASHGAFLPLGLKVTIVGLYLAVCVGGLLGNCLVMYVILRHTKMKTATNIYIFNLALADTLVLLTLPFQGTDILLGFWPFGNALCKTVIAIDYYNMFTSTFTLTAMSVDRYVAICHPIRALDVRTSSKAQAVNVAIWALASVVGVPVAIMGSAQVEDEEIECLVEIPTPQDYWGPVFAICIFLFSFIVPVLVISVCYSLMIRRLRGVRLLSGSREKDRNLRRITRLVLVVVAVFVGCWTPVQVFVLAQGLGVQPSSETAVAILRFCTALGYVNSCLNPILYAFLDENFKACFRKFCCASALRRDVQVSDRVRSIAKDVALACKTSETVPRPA

In the case of `CC[C@@H]1C[C@@H]2C[C@H](C1)C[C@@H](N1[C@@H]3CCC[C@H]1C[C@@H](n1c(=O)c(N4CC(C(=O)O)C4)nc4ccccc41)C3)C2`, the “GTPγS Emax [mean ± SEM] Opioid Receptor Mu” value at human μ-receptors was 41.3 ± 4.1%. For the same molecule, in assay [1], the “GTPγS Emax [mean ± SEM] ORL-1” value was determined as 44.0 ± 4.0%.

For the origin of these results see patent US9290488B2, “Azetidine-substituted quinoxalines as opioid receptor like-1 modulators” (priority 2011, dated 2016).
